From patent US8622991B2, “Method and device for drug delivery” (Insuline Medical Ltd., priority 2007, dated 2014)

Conditions: with heating device vs without, bolus 0.15 U/kg, average of 11 subjects, FIG. 26b

For insulin, the “blood insulin concentration for the same amount of infused insulin” value (initial 2 hours) was “significantly higher” and the “1 hour area under the curve improvement (amount of absorbed insulin in the blood)” value was greater than 30%.
